According to patent US11883505B2, “Anticancer drug-containing plant virus particles” (CASE WESTERN RESERVE UNIVERSITY, priority 2015, dated 2024):

Assay: Liver and kidney toxicity in Balb/c mice (AST, ALT, histology)
Details: 24 h following administration

## phenanthriplatin
  kidney histology (H&E): necrosis of epithelia on the proximal tubules as well as narrowing of the lumen
